The source of these data is ChEMBL document CHEMBL1132372, “The opioid mu agonist/delta antagonist DIPP-NH(2)[Psi] produces a potent analgesic effect, no physical dependence, and less tolerance than morphine in rats” (J Med Chem, 1999).

Amino acid sequences for entries named in this document (tags omitted).
UniProt P33535, whole entry, looked up: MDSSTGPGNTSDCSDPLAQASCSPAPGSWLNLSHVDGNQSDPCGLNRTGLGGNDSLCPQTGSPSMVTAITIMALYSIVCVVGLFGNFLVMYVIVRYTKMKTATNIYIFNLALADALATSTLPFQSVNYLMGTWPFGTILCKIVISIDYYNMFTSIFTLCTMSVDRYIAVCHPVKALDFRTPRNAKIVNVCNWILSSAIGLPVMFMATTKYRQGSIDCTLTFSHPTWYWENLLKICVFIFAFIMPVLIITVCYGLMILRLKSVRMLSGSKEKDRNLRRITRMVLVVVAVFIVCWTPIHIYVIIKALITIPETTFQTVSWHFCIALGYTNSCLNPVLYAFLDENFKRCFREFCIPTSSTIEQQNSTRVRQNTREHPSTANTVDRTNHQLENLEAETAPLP

For the experiment, the target named is Mu-type opioid receptor (Rattus norvegicus) (UniProt P33535). As to the kind of experiment: Ratio of binding affinity towards mu to delta opioid receptors.
For `CN[C@@H](Cc1c(C)cc(O)cc1C)C(=O)N1Cc2ccccc2CC1CN[C@@H](Cc1ccccc1)C(=O)N[C@@H](Cc1ccccc1)C(N)=O` (stereo partly drawn), the Ratio amounted to 1.25.

On to `NC(=O)[C@H](Cc1ccccc1)NC(=O)[C@H](Cc1ccccc1)NCC1Cc2ccccc2CN1C(=O)[C@@H](N)Cc1ccc(O)cc1` (stereo partly drawn), for which the Ratio is 26.3.

For the molecule `CN[C@@H](Cc1c(C)cc(O)cc1C)C(=O)N1Cc2ccccc2C[C@H]1C(=O)N[C@@H](Cc1ccccc1)C(=O)N[C@@H](Cc1ccccc1)C(N)=O`, the Ratio was found to be 10.4.
